{"source": "paper PMC9137552", "about": "“Structural Characterization of Two Short Unspecific Peroxygenases: Two Different Dimeric Arrangements” (Antioxidants, 2022)", "tested_on": "T1, rCviUPO", "T1 construct": "gene CviUPO", "details": "read-out: rCviUPO; inhibition by excess substrate (same compound as substrate); 1 mM H2O2; 0.1 M acetate pH 4.0"}
{"smiles": "CCn1c(=NN=c2sc3cc(S(=O)(=O)O)ccc3n2CC)sc2cc(S(=O)(=O)O)ccc21", "note": "[ABTS, 2,2′-azino-bis(3-ethylbenzothiazoline-6-sulfonic acid)]", "values": [{"measurement": "Km", "value": "239 ± 8", "unit": "µM"}]}
